{"sequences": {"note": "The chains behind the UniProt entries cited, without tags or fusion partners. Residues count along the entry.", "UniProt O83732, 97-237": "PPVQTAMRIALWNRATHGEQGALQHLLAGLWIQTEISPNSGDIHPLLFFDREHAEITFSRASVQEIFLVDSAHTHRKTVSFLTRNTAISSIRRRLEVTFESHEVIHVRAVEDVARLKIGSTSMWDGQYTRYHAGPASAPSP"}, "source": "paper PMC7521688", "about": "(PLoS Pathogens, 2020)", "molecular_target": "T1, TP0751^97-237 (C-terminal lipocalin domain of TP0751) (Treponema pallidum, UniProt O83732)", "T1 construct": "gene TP_0751", "test": "biochemical", "data": [{"smiles": "C=CC1=C(C)C2=Cc3c(C=C)c(C)c4[n]3[Fe]([Cl])[n]3c(c(C)c(CCC(=O)O)c3=CC3=NC(=C4)C(C)=C3CCC(=O)O)=CC1=N2", "note": "[heme]", "values": [{"measurement": "Kd", "result": "11.7 ± 2.2", "unit": "µM"}]}]}
